# Binding of CDR-mutated scFvs to a peptide of the spike HR2 region

Data: MIT Lincoln Laboratory AlphaSeq set, Engelhart et al. 2022, doi:10.1038/s41597-022-01779-4, as distributed in FLAb.

Target: peptide PDVDLGDISGINAS, taken from heptad repeat 2 (HR2) of SARS-CoV-2 spike.

Parent scFv Ab-95: VH joined to VL by a (GGGGS)3 linker. Changes lie in the light chain CDRs alone.
VH: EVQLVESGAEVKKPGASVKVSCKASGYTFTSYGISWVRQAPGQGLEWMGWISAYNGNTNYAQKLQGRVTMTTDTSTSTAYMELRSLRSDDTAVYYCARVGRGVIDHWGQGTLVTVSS
VL: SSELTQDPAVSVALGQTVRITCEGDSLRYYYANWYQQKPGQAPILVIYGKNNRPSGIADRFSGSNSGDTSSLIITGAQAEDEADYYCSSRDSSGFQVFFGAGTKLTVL

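The library (AAYL52) carries one to three amino acid substitutions per variant, with no insertions or deletions. The assay is AlphaSeq: two haploid yeast populations carry antibody and antigen on their surface. After mating in shaken culture at 30 °C for 16 h, diploids were selected and their barcode pairs sequenced. The ratio of observed to expected reads was calibrated, replicate by replicate, on BCL2-family standards whose Kd was known from biolayer interferometry. Each pool was mated in three replicate cultures.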

Positions count from residue 1 of the parent VL; K50P puts P in place of K. Every variant below is changed at K50 of the VL (sequential numbering). Kd is apparent (estimated from mating counts) and averaged on the log scale over replicates with a signal. Smaller is tighter. Where no diploid with the target was found in any replicate, the entry reads "nd": below detection, most likely a poor binder, though not proof of it. Empty control strains, which show no peptide, gave a signal in 28% of pairings with library AAYL52; the median was 8.2 µM and 95% of these signals were weaker than 800 nM. No background was subtracted. In this assay the parent's reference entry averaged 200 nM; its copy inside this library read 180 nM.

With K50P/S55D the result was 80 nM (3 of 3 replicates). For S26K/K50M/Q96R, the assay gave 1.3 µM (1 of 3 replicates). For Y29V/K50E/R90V, the assay gave 3.5 µM (2 of 3 replicates). Variant K50E/S89Q showed 3.3 µM (2 of 3 replicates). Variant G24F/Y29V/K50R gave 4.5 µM (3 of 3 replicates). Variant K50R/V97M gave 6.9 µM (3 of 3 replicates). Variant A32Y/K50T gave 590 nM (3 of 3 replicates).

With K50M/N52L/F98G the result was 1.1 µM (3 of 3 replicates). With K50L/R53E/S55P the result was 44 µM (1 of 3 replicates). Variant K50H/S93A/G94L showed 1.4 µM (3 of 3 replicates). Variant L27W/K50Y/S88P gave 7.3 µM (1 of 3 replicates). Variant L27E/K50V/S89N showed nd (0 of 3 replicates). With K50C/N51P/F98L the result was 11 µM (3 of 3 replicates). Variant R28D/G49L/K50W showed nd (0 of 3 replicates).

With E23F/N33G/K50S the result was 14 µM (1 of 3 replicates). Variant K50T/N52G/F95Q showed 6.2 µM (2 of 3 replicates). Variant K50R/S89Y/S92Q gave 2.2 µM (3 of 3 replicates). For Y30R/K50F/S93K, the assay gave 59 nM (3 of 3 replicates). Variant K50Q/N51Y/S89Y showed 150 µM (2 of 3 replicates). Variant G24H/K50L showed 1.3 µM (3 of 3 replicates). For K50C/N51K/G94Y, the assay gave 22 µM (2 of 3 replicates).

Variant D25K/K50L/F98L gave 11 µM (2 of 3 replicates). For E23P/S26K/K50D, the assay gave nd (0 of 3 replicates). Variant G24T/K50E gave 2.1 µM (3 of 3 replicates). For K50D/P54Q/V97L, the assay gave 26 µM (2 of 3 replicates). Variant N33Q/K50W/G94S showed 110 nM (3 of 3 replicates). With Y29I/K50D/S89Y the result was 5.0 µM (1 of 3 replicates). Variant Y30I/Y31V/K50A showed 680 nM (1 of 3 replicates).

Variant A32Q/K50L/S55M showed nd (0 of 3 replicates). Variant K50S/R53Y/S89G showed 940 nM (1 of 3 replicates). With D25T/K50T the result was 830 nM (3 of 3 replicates). Variant K50P/R90T/S92T showed 1.6 µM (1 of 3 replicates). Variant S26N/K50T/N51K showed 21 µM (2 of 3 replicates). With D25I/K50I/S89F the result was 5.3 µM (3 of 3 replicates). Variant S26I/Y30C/K50S gave 590 nM (1 of 3 replicates).

For D25W/Y30G/K50L, the assay gave 13 nM (3 of 3 replicates). For K50I/N52A/Q96V, the assay gave 9.0 µM (1 of 3 replicates). Variant K50D/N52K/S92D showed 63 nM (3 of 3 replicates).

Top 3 of the variants detected in all replicates, tightest first:

For D25W/Y30G/K50L, the assay gave 13 nM (3 of 3 replicates).
For Y30R/K50F/S93K, the assay gave 59 nM (3 of 3 replicates).
For K50D/N52K/S92D, the assay gave 63 nM (3 of 3 replicates).